Patent US20190345250A1, “ANTIBODY DRUG CONJUGATES” (NOVARTIS AG, priority 2013, published 2019)

System: Kato-III cells
Experiment: Complement dependent cytotoxicity (CDC) with rabbit complement
Format: cell-based
Conditions: rabbit complement one to six, two hour incubation

Erbitux
complement dependent cytotoxicity (CDC): No evidence of CDC
